The values below come from patent US4764515A, “Antitussive and central sedative composition of d-isomer of 3-(4-phenyl-1-piperazinyl)-1,2-propanediol” (priority 1983, dated 1988).

The structures appear in SMILES notation.

The subject of this data set is Central Nervous System. Description: Activity on the Central Nervous System (overall statement). Format: in vivo. The following applies: in words; versus racemic mixture. The source says: Tests have been carried out to determine the CNS activity, by evaluating the influence on the sleeping time induced by barbiturates in the mouse, according to the method of F. M. Berger "Methods in Drug Evaluation" Proc. Int. Symp. Milan, September 1965, North Holland Pubbl. Co., and by recording the electroencephalographic and electromiographic curves in the rat with chronically implanted electrodes, calculating the time (in seconds) in the awakening and sleeping condition (including synchronized and unsynchronized sleep).
The compounds under exam have been administered orally, in the sleeping time test 30 minutes before the i.p. injection of 35 mg/kg of secobarbital, while in the electroencephalographic test at the beginning of recording.

Regarding `OC[C@@H](O)CN1CCN(c2ccccc2)CC1` [(-), (-)-dropropizine], the “selectivity of the activity / undesired side-effects” value is given as “much more selective, with lower undesired side-effects”.
